# scFv variants of Ab-14 (heavy chain) against a SARS-CoV-2 spike peptide

Values reported by Li et al. 2023, doi:10.1038/s41467-023-39022-2 (FLAb copy).

Target peptide (SARS-CoV-2 spike, HR2 region): PDVDLGDISGINAS

Parent scFv Ab-14: VH joined to VL by three GGGGS repeats. Changes lie in the heavy chain CDRs alone.
VH: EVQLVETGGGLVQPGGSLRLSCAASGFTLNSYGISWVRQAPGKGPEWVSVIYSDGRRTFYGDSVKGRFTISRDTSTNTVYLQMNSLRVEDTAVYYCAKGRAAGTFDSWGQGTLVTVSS
VL: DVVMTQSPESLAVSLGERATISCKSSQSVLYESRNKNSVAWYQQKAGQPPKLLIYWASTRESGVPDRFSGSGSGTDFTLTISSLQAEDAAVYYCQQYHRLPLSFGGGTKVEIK

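The starting antibody came from a phage panning campaign against this peptide. Designed CDR sequences, proposed from the first random library and measured here. Group labels follow the data file (Ctrl: baseline library sampled from a position-specific scoring matrix, with some repeated check sequences; Rand: our label for a block that the file lists under HC and that is probably the random mutants of the ten best first-round binders; En: ensemble of fine-tuned language models; GP: Gaussian process model; GPLM: also part of the Gaussian process libraries; HC: hill climbing; Gen: genetic algorithm; Gibbs: Gibbs sampling; a sequence that several methods proposed may carry one label only). AlphaSeq pools MATa yeast showing the antibodies with MATalpha yeast showing the peptide. Binding brings cells together so that they mate, and sequencing counts the barcode pairs among the diploids. Scores were corrected for input abundance and mapped to Kd with protein pairs of known affinity run in the same pool. Mating was done six times.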

Substitutions are numbered in sequence along the VH above, starting at 1 (not Kabat). Variants here have at most six changes. Numbers give log10(Kd / nM), so 0 is 1 nM and 3 is 1 µM. Smaller is tighter. Replicates are averaged; those with no signal do not enter the mean. An entry "nd" has no value in the source: the pair was not observed among the diploids in any replicate. This suggests poor binding but is not conclusive.

Variant T28D G61I R100Q S107A [GPLM_Gibbs] gave 0.28 (6 of 6 replicates; controls 0 of 18). Variant S53A D106K S107I [GPLM_HC] showed 1.59 (1 of 6 replicates; controls 0 of 18). Variant S31E R100N [Ctrl] gave 0.86 (6 of 6 replicates; controls 0 of 18). For G26K T28D A101T S107K [GP_Gibbs], the assay gave 1.91 (6 of 6 replicates; controls 3 of 18). Variant G61S A101N [Ctrl+GPLM_HC] showed 0.51 (12 of 12 replicates; controls 0 of 36).

For T28H S53A D106K [GP_HC], the assay gave nd (0 of 6 replicates; controls 0 of 18). Variant R56S G61D A101L [Ctrl] showed nd (0 of 6 replicates; controls 0 of 18). With T28E F59A S63H A101N [GP_Gibbs] the result was 0.66 (6 of 6 replicates; controls 0 of 18). Variant L29I N30E G61S [GPLM_HC] showed 2.14 (5 of 6 replicates; controls 0 of 18). Variant G26W T28S S31E D54G G103V S107Q [Rand] showed nd (0 of 6 replicates; controls 0 of 18).

With S53A S63Q A101V D106K [GP_HC] the result was nd (0 of 6 replicates; controls 0 of 18). For N30E G61A S63D S107K [GP_Gibbs], the assay gave 0.92 (6 of 6 replicates; controls 1 of 18). For T28D G61D R100Q A101V [GP_HC], the assay gave 0.20 (6 of 6 replicates; controls 0 of 18). Variant G26S A101E S107T [GP_Gibbs] gave 1.78 (3 of 6 replicates; controls 0 of 18). Variant T28D G61Q A101I [GP_Gen] gave -0.01 (6 of 6 replicates; controls 0 of 18).

Variant T28D G103W S107E [GP_HC] showed nd (0 of 6 replicates; controls 1 of 18). Variant G26M T28D A101Q S107T [GP_Gibbs] showed 1.67 (5 of 6 replicates; controls 0 of 18). With G55K G61S A102G [Rand] the result was nd (0 of 6 replicates; controls 1 of 18). For S31D A101D S107L [Ctrl], the assay gave -0.06 (2 of 6 replicates; controls 0 of 18). With T28D S35N R56I F59A [Ctrl] the result was 1.93 (6 of 6 replicates; controls 0 of 18).

Variant F59W G61S A102G [Rand] showed nd (0 of 6 replicates; controls 0 of 18). Variant T28C G61D R100Q A101L [GPLM_HC] gave 3.09 (3 of 6 replicates; controls 1 of 18). For T28A S31E F59A [GP_Gibbs], the assay gave 0.15 (6 of 6 replicates; controls 1 of 18). With F27E G61Q [Ctrl] the result was 1.79 (6 of 6 replicates; controls 0 of 18). Variant T28N G61V R100N [GPLM_Gibbs] showed 0.16 (6 of 6 replicates; controls 2 of 18).

For T28E R56H A101T [GP_Gen], the assay gave 0.94 (6 of 6 replicates; controls 0 of 18). With S53F R56K S107D [Ctrl] the result was nd (0 of 6 replicates; controls 0 of 18). For S31D G61D D106W [GPLM_HC], the assay gave 1.55 (6 of 6 replicates; controls 0 of 18). Variant T28W S31D G61H [GP_HC] gave 1.08 (6 of 6 replicates; controls 0 of 18). Variant N30K G61S R100K A102G [GP_HC] gave nd (0 of 6 replicates; controls 0 of 18).

Variant T28D S31E S53A F59A G61K R100E [En_HC] showed -0.43 (6 of 6 replicates; controls 0 of 18). With N30E R56L [Ctrl] the result was 1.19 (3 of 6 replicates; controls 0 of 18). Variant N30E G61A R100W A101T [GP_Gibbs] gave 1.15 (6 of 6 replicates; controls 0 of 18). Variant S31E A101H S107K [GPLM_Gen] gave 2.05 (6 of 6 replicates; controls 1 of 18). Variant T28Q N30E S63Q A101T [GP_Gibbs] gave 1.16 (3 of 6 replicates; controls 0 of 18).

Variant T28S S31E S107K [GPLM_Gen] showed 1.19 (6 of 6 replicates; controls 0 of 18). Variant T28K G61D S63Q R100Q A101L [GP_HC] showed 1.74 (2 of 6 replicates; controls 0 of 18). For T28G S31E G61M A101T [GPLM_HC], the assay gave 1.22 (1 of 6 replicates; controls 0 of 18). Variant N30D I34R Y52D F105A D106L [Rand] gave nd (0 of 6 replicates; controls 0 of 18).

Excerpt, the first 6 entries:

{"changes": "T28D G61I R100Q S107A", "group": "GPLM_Gibbs", "mean log10 Kd (nM)": "0.28", "detected": "6 of 6", "control signals": "0 of 18"}
{"changes": "S53A D106K S107I", "group": "GPLM_HC", "mean log10 Kd (nM)": "1.59", "detected": "1 of 6", "control signals": "0 of 18"}
{"changes": "S31E R100N", "group": "Ctrl", "mean log10 Kd (nM)": "0.86", "detected": "6 of 6", "control signals": "0 of 18"}
{"changes": "G26K T28D A101T S107K", "group": "GP_Gibbs", "mean log10 Kd (nM)": "1.91", "detected": "6 of 6", "control signals": "3 of 18"}
{"changes": "G61S A101N", "group": "Ctrl+GPLM_HC", "mean log10 Kd (nM)": "0.51", "detected": "12 of 12", "control signals": "0 of 36"}
{"changes": "T28H S53A D106K", "group": "GP_HC", "mean log10 Kd (nM)": "nd", "detected": "0 of 6", "control signals": "0 of 18"}

The range of this assay differs from that of the first round, and the authors advise against merging the two. The parent sequence was in this pool as ten entries: three were never detected, three once, and four in most replicates, with averages from 0.34 to 2.37. The authors' rule: three or more of the six replicates give a measured affinity, fewer mean a poor binder. Nonspecific signal, from three strains lacking the peptide, appeared in 1% of pairings of all heavy chain designs, centred on 2.08 (5% of these signals below 0.84); values are not corrected for it. For each scFv, signals with the empty controls are counted beside the result. Some sequences occur more than once in the pool; their replicates are pooled.